Measured values as given in PubChem BioAssay AID2013 (Sanford-Burnham Center for Chemical Genomics, 2009).
This is a selection; strong and weak results do not stand in their true shares. Measured potencies and affinities stand elsewhere. Some structures show a salt or complex split into parts, the way the source records it. Activity calls are given as the source filed them.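 How the source made its calls: active means spots per cell inhibited over 60%, with over 100 cells counted and total cytoplasm intensity under 500,000; inconclusive means wells with under 100 cells, flagged as likely toxic; inactive means the rest.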

Chains of the proteins cited; added tags and fusions are not shown.
UniProt Q9Y2T6, whole entry: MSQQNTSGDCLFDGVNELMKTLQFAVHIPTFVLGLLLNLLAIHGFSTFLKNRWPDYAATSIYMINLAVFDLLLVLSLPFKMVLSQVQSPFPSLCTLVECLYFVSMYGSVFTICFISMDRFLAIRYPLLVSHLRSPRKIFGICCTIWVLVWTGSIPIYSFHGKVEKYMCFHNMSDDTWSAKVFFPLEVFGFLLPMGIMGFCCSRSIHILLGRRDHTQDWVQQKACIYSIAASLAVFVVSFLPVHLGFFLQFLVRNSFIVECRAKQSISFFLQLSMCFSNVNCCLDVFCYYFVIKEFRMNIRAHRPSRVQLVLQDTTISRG

Target: G-protein coupled receptor 55 (Homo sapiens) (UniProt Q9Y2T6)
Test: inhibition of LPI-stimulated GPR55 beta-arrestin translocation – imaging, U2OS, beta-arrestin-GFP, LPI agonist, primary screen (AID 2013);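 further: U2OS cells stably carrying GPR55 and arrestin-GFP stimulated by 5 µM LPI near EC80; imaged beta-arrestin-GFP aggregate spots per cell after agonist stimulation; plate controls were LPI-stimulated DMSO wells for no effect and DMSO wells without LPI for full effect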
Conditions: LPI antagonism, at 10 µM, stronger effect = higher value

SMILES | inhibition
COc1ccccc1OP(C)(=O)Nc1ccc(C)c(C)c1 (stereo not given) | inactive: 11.2%
COc1ccc(OP(C)(=O)Nc2ccccc2Br)cc1 (stereo not given) | inactive: 0.9%
Cc1cc(C)cc(OP(C)(=O)Nc2cccc(C(F)(F)F)c2)c1 (stereo not given) | inactive: 12.6%
CP(=O)(OCCOc1ccccc1)OCCOc1ccccc1 | inactive: 1.6%
CP(=O)(Nc1ccc(Cl)cc1Cl)Oc1ccccc1 (stereo not given) | inactive: 4.9%
Cc1nc2ccc3ccccc3c2o1.O=[N+]([O-])c1cc([N+](=O)[O-])c(O)c([N+](=O)[O-])c1 | inactive: -8.3%
COc1ccc(OP(C)(=O)Nc2ccccn2)cc1 (stereo not given) | inactive: -9.8%
CN(C)CCOC(=O)C(O)(c1ccccc1)C1CCCC1 (stereo not given) | inactive: -10.6%
COc1ccccc1OP(C)(=O)Nc1ccc(Br)cc1 (stereo not given) | inactive: 3%
COc1ccccc1OP(C)(=O)Nc1ccc(C)cc1C (stereo not given) | inactive: -9.2%
CP(=O)(Nc1ccccn1)Oc1ccccc1 (stereo not given) | inactive: 5%
CCc1ccc(OP(C)(=O)O)cc1 | inactive: -4.4%
O=[N+]([O-])c1cc([N+](=O)[O-])c(Nc2ccccn2)c([N+](=O)[O-])c1 | inactive: -5.1%
Cc1c(NP(C)(=O)Oc2ccc(C(C)C)cc2)c(=O)n(-c2ccccc2)n1C (stereo not given) | inactive: -7.9%
O=C(OCCCN1CCCC1)C(O)(c1ccccc1)C1CCCCC1 (stereo not given) | inactive: -5.1%
COc1ccccc1OP(C)(=O)Nc1c(C)n(C)n(-c2ccccc2)c1=O (stereo not given) | inactive: 3.9%
CCc1ccc(OP(C)(=O)Nc2cccnc2)cc1 (stereo not given) | inactive: 4.2%
CP(=O)(Oc1ccccc1)N1CCOC1=O (stereo not given) | inactive: 7.5%
COc1ccc(OP(C)(=O)Nc2ccc(Br)cc2)cc1 (stereo not given) | inactive: 1.2%
CCN(CC)CC(O)COC(=O)C(O)(c1ccccc1)C1CCCCC1 (stereo not given) | inactive: -3.5%
CN(C)C(=O)c1c([N+](=O)[O-])cc([N+](=O)[O-])cc1[N+](=O)[O-] | inactive: 8.5%
CC(C)(C)c1ccc(OP(C)(=O)O)cc1 | inactive: -7.7%

SMILES | inhibition
COc1ccccc1OP(C)(=O)Nc1ccccc1Br (stereo not given) | inactive: 6%
CP(=O)(Nc1ccc(Cl)cc1)Oc1ccc(F)cc1 (stereo not given) | inactive: 26.7%
CCOC(=O)c1ccc(NP(C)(=O)Oc2ccc(Cl)cc2)cc1 (stereo not given) | inactive: 10.8%
CP(=O)(OC12CC3CC(CC(C3)C1)C2)OC12CC3CC(CC(C3)C1)C2 | inactive: -16.7%
CN(C)CCOC(=O)C(O)(c1ccccc1)C1CCCCC1 (stereo not given) | inactive: 20.7%
COc1ccc(NP(C)(=O)Oc2ccccc2OC)cc1 (stereo not given) | inactive: 1.1%
COc1ccc(OP(C)(=O)Nc2cccc(Br)c2)cc1 (stereo not given) | inactive: 33.4%
O=[N+]([O-])c1ccc(OP2(=O)COCCO2)cc1 (stereo not given) | inactive: 10.3%
Cc1cc(-c2cccc3ccccc23)c(C)cn1.O=[N+]([O-])c1cc([N+](=O)[O-])c(O)c([N+](=O)[O-])c1 | inactive: 0%
O=[N+]([O-])c1cc([N+](=O)[O-])c(NCC2CCS(=O)(=O)C2)c([N+](=O)[O-])c1 (stereo not given) | inactive: 9.5%
CCOP(C)(=S)SCC(=O)NC(C)(CC)C(=O)O (stereo not given) | inactive: 4.1%
CP(=O)(Nc1ccc(SC(F)(F)F)cc1)Oc1ccc(F)cc1 (stereo not given) | inactive: -6.7%
Cc1ccccc1NP(C)(=O)Nc1ccccc1C | inactive: 3.7%
CP(=O)(Nc1ccc2c(c1)OCCO2)Oc1ccccc1 (stereo not given) | inactive: 6.2%
CP(=O)(Nc1ccccc1F)Oc1ccccc1 (stereo not given) | inactive: 5.3%
CC(C)c1ccc(OP(C)(=O)Nc2ccc(SC(F)(F)F)cc2)cc1 (stereo not given) | inactive: 4.5%
COc1ccc2c(c1O)-c1c(O)c(OC)cc3c1[C@H](C2)[N+](C)(C)CC3.O=[N+]([O-])c1cc([N+](=O)[O-])c([O-])c([N+](=O)[O-])c1[O-] | inactive: 19.1%
O=C(OC1CN2CCC1CC2)c1ccc([N+](=O)[O-])cc1 (stereo not given) | inactive: 5.2%
O=C(OCCN1CCN(CCOCc2ccccc2)CC1)C(O)(c1ccccc1)c1ccccc1 | inactive: 3.7%
CCOC(=O)c1ccc(NP(C)(=O)Oc2ccc(F)cc2)cc1 (stereo not given) | inactive: -0.7%
COc1ccc(OP(C)(=O)Nc2ccc(SC(F)(F)F)cc2)cc1 (stereo not given) | inactive: -6.6%
CP(=O)(Nc1ccccc1)Oc1ccc(F)cc1 (stereo not given) | inactive: 5.6%

SMILES | inhibition
O=[N+]([O-])c1cc([N+](=O)[O-])c(OC2CCCCC2O)c([N+](=O)[O-])c1 (stereo not given) | inactive: 0.7%
CCCCCOc1ccc(NP(C)(=O)Oc2ccc(Cl)cc2Cl)cc1 (stereo not given) | inactive: 1.9%
CCN(CC)CCCOC(=O)C(O)(c1ccccc1)C1CCCCC1 (stereo not given) | inactive: 8.5%
O=C(O)c1cccc(Nc2c([N+](=O)[O-])cc([N+](=O)[O-])cc2[N+](=O)[O-])c1 | inactive: 6.5%
CC1=NCCc2c1[nH]c1ccccc21.O=[N+]([O-])c1cc([N+](=O)[O-])c(O)c([N+](=O)[O-])c1 | inactive: 5.1%
CCOC(=O)c1ccc(NP(C)(=O)Oc2cc(C)cc(C)c2)cc1 (stereo not given) | inactive: -16.4%
Cc1cc(C)cc(OP(C)(=O)Nc2ccc(C)cc2C)c1 (stereo not given) | inactive: 5.6%
COc1ccccc1OP(C)(=O)Nc1cccc(Br)c1 (stereo not given) | inactive: -7.9%
Cc1ccc(C)c(NP(C)(=O)Oc2ccccc2)c1 (stereo not given) | inactive: 1.6%
CP(=O)(Nc1cccc(Br)c1)Oc1ccccc1 (stereo not given) | inactive: 11.6%
Cc1cc(C)cc(OP(C)(=O)Nc2ccccn2)c1 (stereo not given) | inactive: -0.4%
O=[N+]([O-])c1cc([N+](=O)[O-])c(-n2nnc3ccccc32)c([N+](=O)[O-])c1 | inactive: -0.7%
Cc1nc2ccc3ccccc3c2s1.O=[N+]([O-])c1cc([N+](=O)[O-])c(O)c([N+](=O)[O-])c1 | inactive: -11.1%
CCOC(=O)C(CC)C1=NC(C)(C)Cc2ccccc21.O=[N+]([O-])c1cc([N+](=O)[O-])c(O)c([N+](=O)[O-])c1 (stereo not given) | inactive: 9.5%
O=[N+]([O-])c1cc([N+](=O)[O-])c(Nc2nnnn2CCO)c([N+](=O)[O-])c1 | inactive: -3.4%
CP(=O)(Nc1ccc(SC(F)(F)F)cc1)Oc1ccccc1 (stereo not given) | inactive: 1%
CCCOc1ccc(NP(C)(=O)Oc2ccc(Cl)cc2)cc1 (stereo not given) | inactive: 1.3%
CN1CCCCC1COC(=O)C1(O)c2ccccc2CCc2ccccc21 (stereo not given) | inactive: 5.6%
COc1ccccc1OP(C)(=O)Nc1c(C)cccc1C (stereo not given) | inactive: 3.9%
CP(=O)(Nc1ccccc1Br)Oc1ccccc1 (stereo not given) | inactive: -4.2%
COc1ccccc1OP(C)(=O)Nc1ccccc1 (stereo not given) | inactive: 15.4%
CP(=S)(Nn1cnnc1)Oc1ccccc1 (stereo not given) | inactive: -1%

SMILES | inhibition
Cc1cc(C)cc(OP(C)(=O)Nc2ccc(SC(F)(F)F)cc2)c1 (stereo not given) | inactive: 2%
CCc1ccc(OP(C)(=O)N2CCN(c3ccc([N+](=O)[O-])cc3)CC2)cc1 (stereo not given) | inactive: 10.6%
CP(=O)(NC(=O)Nc1ccccc1)Oc1ccccc1 (stereo not given) | inactive: -6.9%
CP(=O)(Oc1ccccc1)OC(c1ccccc1)C(F)(F)F (stereo not given) | inactive: 1.2%
CP(=O)(Nc1ccc(SC(F)(F)F)cc1)Oc1ccc(Cl)cc1 (stereo not given) | inactive: 1.8%
Cc1cccc(C)c1OP(C)(=O)Nc1ccc(SC(F)(F)F)cc1 (stereo not given) | inactive: 11.2%
CP(=O)(Nc1ccccn1)Oc1ccc(Cl)cc1 (stereo not given) | inactive: 3.5%
CCOC(=O)c1ccc(NP(C)(=O)Oc2ccc(OC)cc2)cc1 (stereo not given) | inactive: 18.3%
CCOP(C)(=S)SCC(=O)NC(C)C(=O)O (stereo not given) | inactive: -2.3%
CCN(CC)CCCOC(=O)C(O)(c1ccccc1)c1ccccc1 | inactive: -19%
O=[N+]([O-])c1ccc2c(c1)C=Nc1ccccc1O2 | inactive: -1%
Cc1cccc(C)c1OP(C)(N)=O (stereo not given) | inactive: -5.9%
CC(C)(C)c1ccc(OP(C)(=O)Nc2ccc(SC(F)(F)F)cc2)cc1 (stereo not given) | inactive: -3.2%
Cc1cc(C)cc(OP(C)(N)=O)c1 (stereo not given) | inactive: 8.1%
COc1ccc(OP(C)(=O)Nc2cccc(F)c2)cc1 (stereo not given) | inactive: -2.1%
COc1ccccc1OP(C)(=O)Nc1cc(Cl)ccc1C (stereo not given) | inactive: 96.8%
Cc1ccc(NP(C)(=O)Oc2ccccc2)c(C)c1 (stereo not given) | inactive: 8.6%
COc1ccccc1OP(C)(=O)Nc1ccc(C)cc1 (stereo not given) | inactive: 6.1%
CCOC(=O)c1ccc(NP(C)(=O)Oc2ccccc2)cc1 (stereo not given) | inactive: -1.5%
